Measurements reported in patent publication US20240201196A1.
Like-named read-outs stand apart in the source and are kept apart here.

The chains behind the UniProt entries cited, without tags or fusion partners. Where a name states a change or a piece, a line headed by the entry shows the natural chain unless it says otherwise. A line that says so, or that is headed by a name, gives the form on record, which may keep a tag or linker. Residues count along the entry.
UniProt P0A3G2, 3-290 with tags or gaps with the stated changes limits assumed: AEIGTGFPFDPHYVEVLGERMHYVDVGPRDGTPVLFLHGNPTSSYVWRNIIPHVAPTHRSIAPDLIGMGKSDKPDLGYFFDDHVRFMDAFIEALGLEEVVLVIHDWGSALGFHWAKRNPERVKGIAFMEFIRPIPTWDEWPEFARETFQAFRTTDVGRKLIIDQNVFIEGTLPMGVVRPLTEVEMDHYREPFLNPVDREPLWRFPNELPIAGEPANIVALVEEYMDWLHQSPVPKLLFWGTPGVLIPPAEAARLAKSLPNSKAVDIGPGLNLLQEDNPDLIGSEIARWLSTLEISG

Columns and labels:
HT7 [1] = biological target: T1, HT7 (Rhodococcus rhodochrous, UniProt P0A3G2, A155T/A167V/A172T/A224E/C128F/C176G/D78G/E160K/E257K/H272N/K175M/K195N/L47V/L88M/N227D/S58T/T264A/Y273L/Y87F); experiment: Fluorescence polarization titration (KD); conditions: for binding affinity (KD) to HT7: stated in words
HT7 [2] = biological target: T1, HT7; experiment: Protein labeling, SDS-PAGE and in-gel fluorescence; conditions: labeling 30 minutes, 37° C., SDS-PAGE
[3] = biological target: live U-2 OS cells (HaloTag7-SNAP-NLS) (Rhodococcus rhodochrous, UniProt P0A3G2, A155T/A167V/A172T/A224E/C128F/C176G/D78G/E160K/E257K/H272N/K175M/K195N/L47V/L88M/N227D/S58T/T264A/Y273L/Y87F); experiment: Confocal staining of live cells (cell permeability); conditions: no-wash confocal
dHT7^D106X = dHT7^D106X (Rhodococcus rhodochrous, UniProt P0A3G2, A155T/A167V/A172T/A224E/C128F/C176G/D106C/D78G/E160K/E257K/H272N/K175M/K195N/L47V/L88M/N227D/S58T/T264A/Y273L/Y87F)
dHT7^D106A [4] = biological target: T2, dHT7^D106A (Rhodococcus rhodochrous, UniProt P0A3G2, A155T/A167V/A172T/A224E/C128F/C176G/D106A/D78G/E160K/E257K/H272N/K175M/K195N/L47V/L88M/N227D/S58T/T264A/Y273L/Y87F); experiment: Fluorescence polarization titration (KD); conditions: stated in words
HT7 [5] = biological target: T1, HT7; experiment: pH-dependency of FP binding kinetics and affinity
[6] = biological target: H2B-HT7^D106A-T2A-meGFP expressing live cells (Rhodococcus rhodochrous, UniProt P0A3G2, A155T/A167V/A172T/A224E/C128F/C176G/D106A/D78G/E160K/E257K/H272N/K175M/K195N/L47V/L88M/N227D/S58T/T264A/Y273L/Y87F); experiment: Live-cell no-wash confocal staining
dHT7^D106A [7] = biological target: T2, dHT7^D106A; experiment: Stopped-flow fluorescence polarization binding kinetics; conditions: compared with nrHTL binding to HT7
HT7 [8] = biological target: T1, HT7; experiment: Fluorescence turn-on assay
H2B-HT8 = H2B-HT8 (Rhodococcus rhodochrous, UniProt P0A3G2, A155T/A167V/A172T/A224E/C128F/C176G/C262S/C61S/D78G/E160K/E257K/H272N/K175M/K195N/L47V/L88M/N227D/S58T/T264A/Y273L/Y87F); experiment: Live-cell confocal staining
[9] = biological target: fixed U-2 OS cells expressing HaloTag7-SNAP-NLS (Rhodococcus rhodochrous, UniProt P0A3G2, A155T/A167V/A172T/A224E/C128F/C176G/D78G/E160K/E257K/H272N/K175M/K195N/L47V/L88M/N227D/S58T/T264A/Y273L/Y87F); experiment: Confocal staining of fixed cells; conditions: 500 nM, no-wash confocal
HT7 [10] = biological target: T1, HT7; experiment: Stopped-flow fluorescence polarization binding kinetics
[11] = read-out: binding affinity KD to HT7, fluorogenic variants of nrHTL1 23

CCCCCCOCCOCCNC(=O)c1ccc(C(=O)[O-])c(-c2c3ccc(=[N+](C)C)cc-3oc3cc(N(C)C)ccc23)c1
binding affinity (KD) to HT7 (HT7 [1]; fluorescence polarization): moderate mM range
Kd (HT7 [1]; read-out: affinity to HT7, fluorescence polarization): 40000 nM

CN(C)c1ccc2c(c1)[Si](C)(C)C1=CC(=[N+](C)C)C=CC1=C2c1cc(C(=O)NCCOCCOCCCCNS(C)(=O)=O)ccc1C(=O)[O-]
covalent linkage to HT7 (in-gel fluorescence) (HT7 [2]): did not lead to a covalent linkage
staining of live cells [3]: specific and similar nuclear staining

CNCCCCCOCCOCCNC(=O)c1ccc(C(=O)[O-])c(-c2c3ccc(=[N+](C)C)cc-3oc3cc(N(C)C)ccc23)c1
binding to HT7^D106C compared with native HT7 (dHT7^D106X): equivalent binder
binding affinity (KD) to HT7 (HT7 [1]; fluorescence polarization): sub-μM
binding affinity to dHT7^D106A (dHT7^D106A [4]): significantly less affinity
increase of binding speed between pH 6.0 and 8.0 (factor) (HT7 [5]; HT7): about 7
binding affinity over pH range (HT7 [5]; pH 6.0 to 8.0): stays comparable
covalent linkage to HT7 (in-gel fluorescence) (HT7 [2]): did not lead to a covalent linkage
staining of live cells [3]: not able to stain live cells

CN(C)c1ccc2c(-c3cc(C(=O)NCCOCCOCCCCNS(=O)(=O)C(F)(F)F)ccc3C(=O)[O-])c3ccc(=[N+](C)C)cc-3oc2c1
binding affinity (KD) to HT7 (HT7 [1]; fluorescence polarization): analogous to their corresponding nrHTL 23
covalent linkage to HT7 (in-gel fluorescence) (HT7 [2]): Non-covalent binding

CN(C)c1ccc2c(c1)[Si](C)(C)C1=CC(=[N+](C)C)C=CC1=C2c1cc(C(=O)NCCOCCOCCCCO)ccc1C(=O)[O-]
cell permeability and staining of H2B-HT7^D106A [6]: sufficient cell permeability and a specific nuclear staining
binding affinity to dHT7^D106A (dHT7^D106A [4]): sub-micromolar affinity
binding kinetics to dHT7^D106A (dHT7^D106A [7]): even faster

C[Si]1(C)C2=CC(=[N+]3CCC3)C=CC2=C(c2cc(C(=O)NCCOCCOCCCCNS(C)(=O)=O)ccc2C(=O)[O-])c2ccc(N3CCC3)cc21
Kd (HT7 [1]; [11]): 120 nM

CC(=O)NCCCCOCCOCCNC(=O)c1ccc(C(=O)[O-])c(-c2c3ccc(=[N+](C)C)cc-3oc3cc(N(C)C)ccc23)c1
binding affinity (KD) to HT7 (HT7 [1]; fluorescence polarization): No binding

CC(=O)NCCCCOCCOCCNC(=O)c1ccc(C(=O)[O-])c(C2=C3C=CC(=[N+](C)C)C=C3[Si](C)(C)c3cc(N(C)C)ccc32)c1
binding affinity (KD) to HT7 (HT7 [1]; fluorescence polarization): No binding

CN(C)c1ccc2c(c1)Oc1cc(N(C)C)ccc1C21c2cc(C(=O)NCCOCCOCCCCNS(C)(=O)=O)ccc2C(=O)N1S(=O)(=O)N(C)C
fluorescence turn-on upon HaloTag binding (HT7 [8]; stated in words): barely shows any turn-on
Kd (HT7 [1]; [11]): 910 nM

CN(C)c1ccc2c(c1)[Si](C)(C)C1=CC(=[N+](C)C)C=CC1=C2c1cc(C(=O)NCCOCCOCCCCNS(=O)(=O)C(F)(F)F)ccc1C(=O)[O-]
fluorescence turn-on upon HT7 binding (HT7 [8]; quotient of emission with/without HT7 at emission maximum): > 10
staining of H2B-HT8 (H2B-HT8): superior brightness
binding affinity (KD) to HT7 (HT7 [1]; fluorescence polarization): analogous to their corresponding nrHTL 23

CN(C)c1ccc2c(-c3cc(C(=O)NCCOCCOCCCCCO)ccc3C(=O)[O-])c3ccc(=[N+](C)C)cc-3oc2c1
binding affinity to dHT7^D106A (dHT7^D106A [4]): sub-micromolar affinity
binding kinetics to dHT7^D106A (dHT7^D106A [7]): even faster

CN(C)c1ccc2c(-c3cc(C(=O)NCCOCCOCCCCN=[N+]=[N-])ccc3C(=O)[O-])c3ccc(=[N+](C)C)cc-3oc2c1
binding affinity (KD) to HT7 (HT7 [1]; fluorescence polarization): moderate mM range

CN(C)c1ccc2c(-c3cc(C(=O)NCCOCCOCCCCNS(C)(=O)=O)ccc3C(=O)[O-])c3ccc(=[N+](C)C)cc-3oc2c1
staining of fixed cells [9]: properly stained
binding affinity (KD) to HT7 (HT7 [1]; fluorescence polarization): sub-μM
binding affinity to dHT7^D106A (dHT7^D106A [4]): significantly less affinity
pH-dependent affinity (KD) (HT7 [5]; between pH 7.2 and 8.0): constant KD-values
pH-dependent affinity (KD) (HT7 [5]; pH 6.0): decreased affinity
covalent linkage to HT7 (in-gel fluorescence) (HT7 [2]): did not lead to a covalent linkage
staining of live cells [3]: not able to stain live cells

CN(C)c1ccc2c(-c3cc(C(=O)NCCOCCOCCCCCNS(C)(=O)=O)ccc3C(=O)[O-])c3ccc(=[N+](C)C)cc-3oc2c1
binding to HT7^D106C compared with native HT7 (dHT7^D106X): equivalent binder
enhancement of binding affinity in comparison to TMR-23 (factor) (HT7 [1]; HT7): 2
binding affinity to dHT7^D106A (dHT7^D106A [4]): significantly less affinity
covalent linkage to HT7 (in-gel fluorescence) (HT7 [2]): did not lead to a covalent linkage
staining of live cells [3]: not able to stain live cells
difference in binding speed compared to TMR-28 (HT7 [10]; HT7): about 4 orders of magnitude
time to completion of binding to HT7 (HT7 [10]; stopped-flow FP): ≤ 0.5 s

CN(C)c1ccc2c(c1)[Si](C)(C)C1=CC(=[N+](C)C)C=CC1=C2c1cc(C(=O)NCCOCCOCCCCCO)ccc1C(=O)[O-]
binding affinity (KD) to HT7 (HT7 [1]; fluorescence polarization): decent binding affinity
binding affinity to dHT7^D106A (dHT7^D106A [4]): sub-micromolar affinity
